IC50 data for 1 compound are collected here from patent US10906888B2, “Pyrimidine carboxamides as inhibitors of Vanin-1 enzyme” (Pfizer Inc., priority 2016, dated 2021).

Amino acid sequences for entries named in this document (tags omitted). Residues count along the entry.
UniProt O95497, 22-491 limits assumed: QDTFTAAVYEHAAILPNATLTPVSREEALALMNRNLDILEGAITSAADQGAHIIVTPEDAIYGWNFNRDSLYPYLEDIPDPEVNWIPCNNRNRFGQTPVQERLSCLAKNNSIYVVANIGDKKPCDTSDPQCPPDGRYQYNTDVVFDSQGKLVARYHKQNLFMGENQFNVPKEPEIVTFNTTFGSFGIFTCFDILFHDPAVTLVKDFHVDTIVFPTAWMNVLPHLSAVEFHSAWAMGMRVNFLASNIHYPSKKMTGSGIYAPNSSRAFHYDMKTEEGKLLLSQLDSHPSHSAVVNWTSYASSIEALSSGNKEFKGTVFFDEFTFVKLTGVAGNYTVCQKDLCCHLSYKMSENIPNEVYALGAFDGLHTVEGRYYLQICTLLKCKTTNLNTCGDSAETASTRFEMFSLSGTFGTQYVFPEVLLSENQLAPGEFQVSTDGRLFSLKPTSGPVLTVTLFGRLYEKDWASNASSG

pIC50: −log10 of the molar value.

The target of the test is human vanin-1 (Homo sapiens (Human), UniProt O95497). The experiment in a line: Human Vanin-1 Enzyme Assay 1. Type of test: biochemical. The note with it: read-out: Human Vanin-1 IC50; 25 pM human vanin-1, 50 uM pantetheine 7-amino-4-trifluoromethylcoumarin substrate.

For the compound `C[C@H](Nc1ncc(C(=O)N2C[C@@H]3C[C@H]2CN3C)cn1)c1cnccn1`, the pIC50 is 6.22.
